According to PMC3116808 (Journal of natural products, 2011):

Assay: Solubility in distilled water
Conditions: in distilled water at 23 °C

Substance | Solubility [mg/mL]
Nitroarginine Auristatin TP [3h] | 7
Morpholine Auristatin TP [3d] | >72
